The values that follow come from ChEMBL document CHEMBL1158305, “Bastadin 20 and bastadin O-sulfate esters from Ianthella basta: novel modulators of the Ry1R FKBP12 receptor complex” (J Nat Prod, 1996).

Sequences of proteins named here, by UniProt entry; tags and fusion partners are left off. A change or cut given only in a name is not applied to a line headed by its entry.
UniProt P11716: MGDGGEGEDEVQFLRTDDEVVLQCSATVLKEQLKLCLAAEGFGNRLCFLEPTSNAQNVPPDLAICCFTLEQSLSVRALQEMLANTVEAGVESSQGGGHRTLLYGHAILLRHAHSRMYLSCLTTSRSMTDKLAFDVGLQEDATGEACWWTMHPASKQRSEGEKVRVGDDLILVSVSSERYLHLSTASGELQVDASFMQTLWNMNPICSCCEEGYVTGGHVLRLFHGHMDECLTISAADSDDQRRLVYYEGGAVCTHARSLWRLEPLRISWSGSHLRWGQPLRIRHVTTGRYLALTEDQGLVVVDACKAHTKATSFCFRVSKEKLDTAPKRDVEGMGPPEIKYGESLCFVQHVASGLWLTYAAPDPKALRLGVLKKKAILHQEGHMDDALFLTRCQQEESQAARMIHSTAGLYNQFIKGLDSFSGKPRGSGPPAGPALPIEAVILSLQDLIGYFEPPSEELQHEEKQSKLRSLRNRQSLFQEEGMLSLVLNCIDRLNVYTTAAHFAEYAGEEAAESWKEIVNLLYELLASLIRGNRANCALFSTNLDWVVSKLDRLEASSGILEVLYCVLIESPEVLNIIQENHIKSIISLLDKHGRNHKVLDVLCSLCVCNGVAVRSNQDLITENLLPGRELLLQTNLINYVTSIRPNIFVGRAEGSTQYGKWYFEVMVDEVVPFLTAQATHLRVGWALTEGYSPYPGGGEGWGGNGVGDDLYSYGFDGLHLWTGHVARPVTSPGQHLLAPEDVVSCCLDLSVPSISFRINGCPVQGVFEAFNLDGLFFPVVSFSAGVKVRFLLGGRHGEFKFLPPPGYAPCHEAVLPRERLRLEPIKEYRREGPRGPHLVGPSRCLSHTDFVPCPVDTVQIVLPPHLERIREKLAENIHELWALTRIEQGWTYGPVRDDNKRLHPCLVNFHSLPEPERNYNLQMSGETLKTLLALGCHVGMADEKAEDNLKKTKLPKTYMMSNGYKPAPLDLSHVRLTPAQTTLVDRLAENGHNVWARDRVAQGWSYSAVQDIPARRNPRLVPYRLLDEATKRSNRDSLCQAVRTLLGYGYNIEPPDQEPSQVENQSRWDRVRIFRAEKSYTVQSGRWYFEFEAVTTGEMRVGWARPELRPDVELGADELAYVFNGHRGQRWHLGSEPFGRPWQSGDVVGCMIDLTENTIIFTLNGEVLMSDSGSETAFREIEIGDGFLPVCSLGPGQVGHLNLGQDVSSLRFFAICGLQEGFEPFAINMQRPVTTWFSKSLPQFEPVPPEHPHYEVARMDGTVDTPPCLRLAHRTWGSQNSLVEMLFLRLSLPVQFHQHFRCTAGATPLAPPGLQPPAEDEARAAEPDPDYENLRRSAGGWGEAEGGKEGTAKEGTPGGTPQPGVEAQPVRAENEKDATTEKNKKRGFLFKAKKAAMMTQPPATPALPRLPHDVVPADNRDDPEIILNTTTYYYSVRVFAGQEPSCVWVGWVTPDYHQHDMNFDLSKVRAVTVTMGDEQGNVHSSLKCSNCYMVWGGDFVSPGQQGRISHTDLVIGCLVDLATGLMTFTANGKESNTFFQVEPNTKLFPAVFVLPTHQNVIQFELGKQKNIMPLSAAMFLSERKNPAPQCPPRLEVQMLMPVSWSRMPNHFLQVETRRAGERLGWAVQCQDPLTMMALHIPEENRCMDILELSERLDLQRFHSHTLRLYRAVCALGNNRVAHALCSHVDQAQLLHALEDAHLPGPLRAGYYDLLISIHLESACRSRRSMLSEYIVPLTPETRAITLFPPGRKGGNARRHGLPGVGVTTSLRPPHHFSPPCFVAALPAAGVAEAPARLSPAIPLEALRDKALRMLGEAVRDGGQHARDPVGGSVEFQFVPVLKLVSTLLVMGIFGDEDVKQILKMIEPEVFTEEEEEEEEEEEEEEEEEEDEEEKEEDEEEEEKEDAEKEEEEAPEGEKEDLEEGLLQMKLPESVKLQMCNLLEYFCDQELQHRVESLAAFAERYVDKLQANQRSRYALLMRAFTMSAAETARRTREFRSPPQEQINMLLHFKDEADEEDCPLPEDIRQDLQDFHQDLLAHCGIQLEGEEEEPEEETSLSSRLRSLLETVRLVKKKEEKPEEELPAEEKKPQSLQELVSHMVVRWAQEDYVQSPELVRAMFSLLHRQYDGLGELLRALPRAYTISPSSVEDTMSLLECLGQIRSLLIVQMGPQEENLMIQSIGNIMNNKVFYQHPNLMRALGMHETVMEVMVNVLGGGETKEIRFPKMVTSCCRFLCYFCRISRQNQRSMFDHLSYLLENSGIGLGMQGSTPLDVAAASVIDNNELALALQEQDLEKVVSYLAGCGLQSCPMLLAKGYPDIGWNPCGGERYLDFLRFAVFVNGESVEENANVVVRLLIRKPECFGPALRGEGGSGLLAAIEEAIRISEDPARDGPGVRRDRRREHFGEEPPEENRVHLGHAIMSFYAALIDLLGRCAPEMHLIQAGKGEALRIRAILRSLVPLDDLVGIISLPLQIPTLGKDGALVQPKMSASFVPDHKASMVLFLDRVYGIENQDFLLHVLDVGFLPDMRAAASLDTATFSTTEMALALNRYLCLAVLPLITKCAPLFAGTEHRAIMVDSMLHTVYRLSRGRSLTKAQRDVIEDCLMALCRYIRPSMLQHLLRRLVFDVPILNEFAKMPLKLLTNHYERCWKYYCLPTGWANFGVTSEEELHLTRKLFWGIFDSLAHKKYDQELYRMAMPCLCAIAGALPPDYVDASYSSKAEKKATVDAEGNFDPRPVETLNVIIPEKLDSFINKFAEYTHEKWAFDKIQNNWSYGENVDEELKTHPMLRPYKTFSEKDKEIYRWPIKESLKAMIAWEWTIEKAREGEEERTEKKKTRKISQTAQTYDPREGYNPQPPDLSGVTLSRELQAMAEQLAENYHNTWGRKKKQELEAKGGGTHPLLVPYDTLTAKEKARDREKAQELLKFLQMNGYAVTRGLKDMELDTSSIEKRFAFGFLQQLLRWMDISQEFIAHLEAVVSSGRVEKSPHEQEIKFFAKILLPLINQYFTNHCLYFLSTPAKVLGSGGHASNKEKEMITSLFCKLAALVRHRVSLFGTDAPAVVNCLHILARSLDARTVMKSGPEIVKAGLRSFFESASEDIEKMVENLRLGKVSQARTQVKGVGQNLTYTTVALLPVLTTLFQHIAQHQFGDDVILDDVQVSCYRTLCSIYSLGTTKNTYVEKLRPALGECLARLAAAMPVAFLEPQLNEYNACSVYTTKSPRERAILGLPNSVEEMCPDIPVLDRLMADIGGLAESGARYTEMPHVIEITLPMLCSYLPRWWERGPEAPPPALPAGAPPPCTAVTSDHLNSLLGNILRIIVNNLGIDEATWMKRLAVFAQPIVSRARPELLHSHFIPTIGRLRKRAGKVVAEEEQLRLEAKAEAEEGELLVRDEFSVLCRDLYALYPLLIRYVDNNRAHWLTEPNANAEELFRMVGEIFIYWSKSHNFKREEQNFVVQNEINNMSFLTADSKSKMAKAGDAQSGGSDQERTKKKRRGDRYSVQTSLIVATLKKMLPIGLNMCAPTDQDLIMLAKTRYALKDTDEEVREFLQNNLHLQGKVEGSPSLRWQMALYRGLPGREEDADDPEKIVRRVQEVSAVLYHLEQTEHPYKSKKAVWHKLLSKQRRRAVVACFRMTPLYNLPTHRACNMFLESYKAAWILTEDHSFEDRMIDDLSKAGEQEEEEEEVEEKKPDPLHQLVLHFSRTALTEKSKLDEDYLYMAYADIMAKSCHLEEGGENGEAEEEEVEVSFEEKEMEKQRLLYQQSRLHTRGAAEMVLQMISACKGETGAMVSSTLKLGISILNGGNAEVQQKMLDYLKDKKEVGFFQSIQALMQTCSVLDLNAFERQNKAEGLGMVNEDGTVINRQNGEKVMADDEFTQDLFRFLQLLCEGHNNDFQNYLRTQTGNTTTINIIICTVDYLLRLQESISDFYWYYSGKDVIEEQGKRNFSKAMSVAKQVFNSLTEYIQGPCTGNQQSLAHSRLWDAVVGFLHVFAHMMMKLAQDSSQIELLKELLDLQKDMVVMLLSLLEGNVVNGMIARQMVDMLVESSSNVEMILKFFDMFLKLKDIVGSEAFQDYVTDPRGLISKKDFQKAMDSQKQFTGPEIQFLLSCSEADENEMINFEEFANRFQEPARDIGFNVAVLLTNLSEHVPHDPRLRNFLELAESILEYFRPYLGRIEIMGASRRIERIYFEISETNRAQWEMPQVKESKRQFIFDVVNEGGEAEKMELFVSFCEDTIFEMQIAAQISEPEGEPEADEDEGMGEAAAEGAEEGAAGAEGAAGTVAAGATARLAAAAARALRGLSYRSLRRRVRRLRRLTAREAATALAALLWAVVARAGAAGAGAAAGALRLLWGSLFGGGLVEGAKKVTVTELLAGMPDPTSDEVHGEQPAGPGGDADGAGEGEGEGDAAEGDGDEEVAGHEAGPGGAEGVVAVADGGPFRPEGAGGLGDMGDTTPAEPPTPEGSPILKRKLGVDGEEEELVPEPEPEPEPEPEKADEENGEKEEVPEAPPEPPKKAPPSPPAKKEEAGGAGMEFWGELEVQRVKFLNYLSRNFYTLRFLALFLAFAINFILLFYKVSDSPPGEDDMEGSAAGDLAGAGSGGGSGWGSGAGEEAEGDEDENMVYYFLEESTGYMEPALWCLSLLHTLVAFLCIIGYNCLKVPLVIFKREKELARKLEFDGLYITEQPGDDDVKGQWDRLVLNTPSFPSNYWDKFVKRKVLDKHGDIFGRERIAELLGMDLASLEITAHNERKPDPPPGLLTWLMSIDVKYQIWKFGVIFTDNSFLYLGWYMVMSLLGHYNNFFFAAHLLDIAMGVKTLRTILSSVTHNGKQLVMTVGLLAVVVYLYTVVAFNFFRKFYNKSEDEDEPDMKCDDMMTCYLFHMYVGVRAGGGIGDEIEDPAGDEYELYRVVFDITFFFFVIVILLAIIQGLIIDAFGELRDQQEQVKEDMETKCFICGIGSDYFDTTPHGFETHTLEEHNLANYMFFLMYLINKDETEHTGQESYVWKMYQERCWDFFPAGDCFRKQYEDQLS

This test deals with Ryanodine receptor 1 (Oryctolagus cuniculus, UniProt P11716). As to the kind of experiment: Displacement of [3H]ryanodine from Ry1R/FKBP12 receptor complex in rabbit sarcoplasmic reticulum. For orientation: Displacement assays read how much labelled ligand stays bound in the presence of the test substance.

In turn, `O=C1NCCc2ccc(c(Br)c2)Oc2cc(cc(Br)c2O)CCNC(=O)/C(=N/O)Cc2cc(Br)c(O)c(c2)Oc2ccc(cc2Br)C/C1=N\O` displayed a 50% effective concentration (EC50) of 20.6 µM.

What is called EC50 is the concentration at which the effect is half-maximal. Lower therefore signals an effect from little substance.
